According to patent US4045488A, “Aminophenyltetralin compounds” (Pfizer Inc., priority 1976, dated 1977):
Counter-ions that a name gives are not always drawn.

Tested on: spontaneous motor activity
Assay: spontaneous motor activity in mice (circular actophotometers, activity counts)
Assay type: in vivo, mouse
Conditions: i.p.
From the text: On the other hand, the activity of the compounds of the present invention, as psychomotor stimulants, is based on a variety of tests, including (1) a study of their motor activity in mice and (2) a measurement of their ability to influence the loss of avoidance behavior in rats trained on a non-discriminated (Sidman) avoidance schedule.
Seven circular acetophotometers, each 39 cm. in diameter and each containing six photocell units, were used to independently study the effects of trans-dl-N-methyl-4-phenyl-1,2,3,4-tetrahydro-1-naphthylamine hydrochloride, trans-d-N-methyl-4-phenyl-1,2,3,4-tetrahydro-1-naphthylamine hydrochloride and its corresponding laevortatory isomer, d-amphetamine sulfate, methylphenidate, desmethylimipramine and protriptyline, respectively, on spontaneous motor activity in mice. A total of seven mice was employed at each dose level tested (viz., at 0.32, 1.0, 3.2, 10 and 32 mg./kg., i.p., respectively) and these mice were separated one to an activity cage. After an initial 1/2 hour exposure period (for acclimation purposes), each animal in the cage was treated with a sample of the drug intraperitoneally and immediately thereafter returned to said cage, with activity counts every 1/2 hour being recorded from that point on.

In the case of `CN[C@@H]1CC[C@@H](c2ccccc2)c2ccccc21` (relative stereo) [Trans-isomer of Example IV, trans-dl-N-methyl-4-phenyl-1,2,3,4-tetrahydro-1-naphthylamine hydrochloride], the “potency as motor stimulant relative to the dextrorotatory isomer” value was “somewhat less potent than the aforesaid dextrorotatory isomer”.
